The values below are quoted from earlier work in patent US20050124660A1, “Novel medical uses of compounds showing CB1-antagonistic activity and combination treatment involving said compounds” (priority 2003, published 2005).

This data set deals with T1, porcine pancreatic lipase (Sus scrofa, UniProt P00591).
T1 sequence (P00591 1-450): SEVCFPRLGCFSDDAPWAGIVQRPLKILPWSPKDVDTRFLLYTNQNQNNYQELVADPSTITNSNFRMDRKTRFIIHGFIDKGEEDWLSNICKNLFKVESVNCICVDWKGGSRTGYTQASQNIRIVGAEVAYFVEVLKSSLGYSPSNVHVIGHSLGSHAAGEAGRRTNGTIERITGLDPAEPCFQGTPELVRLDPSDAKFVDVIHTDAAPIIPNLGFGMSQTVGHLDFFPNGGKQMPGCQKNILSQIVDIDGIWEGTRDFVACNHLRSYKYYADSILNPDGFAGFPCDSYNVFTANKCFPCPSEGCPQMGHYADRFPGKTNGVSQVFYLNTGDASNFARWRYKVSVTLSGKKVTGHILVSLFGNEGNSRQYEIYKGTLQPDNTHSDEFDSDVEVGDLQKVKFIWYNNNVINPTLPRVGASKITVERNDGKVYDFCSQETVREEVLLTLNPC
To be noted: cited from earlier work.

Consider “(2S,3S,5S,7Z,10Z)-5-((S)-2-formamido-4-methylvaleryloxy)-2-hexyl-3-hydroxy-7,10-hexadecadienoic acid lactone [lipstatin]”, for which the “IC50 for inhibition of hydrolysis of triolein by porcine pancrease lipase” value was 0.07 µg/mL.
